Experiments:
[1] = NO release, Griess assay (phosphate buffer pH 7.4 with L-cysteine); type: physicochemical; settings: for NO Released (%) 1 h: 1 h incubation, expressed as % NO2− (μmol/μmol), Griess assay, physiological conditions, furoxan 100 µM; for NO Released (%) 24 h: 24 h incubation; for NO Released (%) 24 h / NO Released (%) 48 h: % NO2− (μmol/μmol); for NO Released (%) 48 h: 48 h incubation; for total amount of released NO: with longer incubation periods
[2] = system: MRC-5 (human embryonic lung fibroblast) cells; assay: MTT cytotoxicity, MRC-5 cells, 72 h; type: cell-based; settings: read-out: IC50 MRC-5, 72 h exposure
[3] = system: AB1 cells; assay: NO release in vitro in AB1 cells (Griess reagent); type: cell-based, mouse; settings: 25 μM, 24 h, relative to untreated cells
[4] = system: AB1 cells; assay: ROS detection, CM-H2DCFDA, live-cell confocal microscopy; settings: 100 μM, 2 h
[5] = system: JU77 (human malignant mesothelioma) cells; assay: MTT cytotoxicity, JU77 cells, 72 h; settings: read-out: IC50 JU77, 72 h exposure
[6] = system: AB1 (mouse malignant mesothelioma) cells; assay: MTT cytotoxicity, AB1 cells, 72 h; settings: read-out: IC50 AB1, 72 h exposure
[7] = system: AB1 and JU77 cell lines; assay: Cytotoxicity in both MPM cell lines (AB1 and JU77); settings: read-out: IC50 (cytotoxicity) in both MPM cell lines; AB1 and JU77, 72 h, range over cell lines/compounds
[8] = system: A549, HCT116, HeLa, MCF7, and RD cell lines; settings: cited from earlier work
[9] = system: A549 non-small-cell lung cancer line; settings: read-out: IC50 A549; previously reported; cited from earlier work
[10] = system: HEK293 cells; settings: read-out: IC50 HEK293; 72 h; cited from earlier work

Row | SMILES | NO Released (%) 1 h [1] | NO Released (%) 24 h [1] | NO Released (%) 48 h [1] | IC50 [2] | intracellular NO release (in words) [3] | ROS generation (CM-H2DCFDA fluorescence, in words) [4] | IC50 [5] | IC50 [6] | total amount of released NO [1] | IC50 [7] | cytotoxicity (in words) ([8]; earlier work) | IC50 ([8]; range over A549, HCT116, HeLa, MCF7, RD, 72 h) | IC50 [9] | IC50 [10] | NO-donor ranking (in words) ([1]; among all tested compounds)
1 | NC(=NO)c1no[n+]([O-])c1C(N)=NO | 75 ± 9% | 81 ± 5% | 82 ± 7% |  |  |  |  |  |  |  |  |  |  |  | 
2 | [O-][n+]1onc(-c2noc(-c3ccco3)n2)c1-c1noc(-c2ccco2)n1 | 52 ± 3% | 70 ± 5% | 73 ± 8% | 45.4 µM | high | pronounced increase in fluorescence | 5 µM | 14.2 µM |  |  |  |  |  |  | 
3 | [O-][n+]1onc(-c2ncon2)c1-c1ncon1 | 73 ± 6% | 131 ± 1% | 144 ± 1% | 16.4 µM |  |  | 8.6 µM | 11.7 µM | exceeded 100% | 8.6 to 11.7 µM | high cytotoxicity | 2.37 to 8.75 µM | 8.8 µM | 20.4 µM | 
4 | COCc1nc(-c2no[n+]([O-])c2-c2noc(COC)n2)no1 | 75 ± 7% | 112± 1% | 125 ± 1% | 52.6 µM |  |  | 19.5 µM | 15.6 µM | exceeded 100% |  |  |  |  |  | most effective NO donors

— paper PMC12656327 (Pharmaceutics, 2025)
